System: CA-II
Settings: 18F-labeled; correlates with high expression levels of CA-II

For “4-[^18F]fluoropyridine-valine-benzenesulfonamide [18F-labeled CA-II imaging agent]”, which preferential tissue binding is on record?
The preferential tissue binding was “preferentially binds to lungs, kidneys and blood”.

— US20060269942A1, “In situ click chemistry method for screening high affinity molecular imaging probes” (priority 2005, published 2006)
